The target in assay [1] is T1, Bombesin BB1 (Homo sapiens, UniProt P28336). The assay is described as follows: Bombesin BB1 radioligand binding. Also noted: expressed in transfected cells; host or cells: CHO cells. The following applies: read-out: Concurrent IC50 (reference compound); batch 147475. From the text: The percentage of concentration represents the concentration strength of the particular concentrate tested; that is, the strength of concentration relative to the Morinda citrifolia fruit juice from which the concentrate was obtained. […] The following materials and methods were utilized in the Bombesin research. [table]

Chains of the proteins cited; added tags and fusions are not shown. Lines headed by an entry give the natural chain unless they say otherwise; changes in a name come on top.
UniProt P28336: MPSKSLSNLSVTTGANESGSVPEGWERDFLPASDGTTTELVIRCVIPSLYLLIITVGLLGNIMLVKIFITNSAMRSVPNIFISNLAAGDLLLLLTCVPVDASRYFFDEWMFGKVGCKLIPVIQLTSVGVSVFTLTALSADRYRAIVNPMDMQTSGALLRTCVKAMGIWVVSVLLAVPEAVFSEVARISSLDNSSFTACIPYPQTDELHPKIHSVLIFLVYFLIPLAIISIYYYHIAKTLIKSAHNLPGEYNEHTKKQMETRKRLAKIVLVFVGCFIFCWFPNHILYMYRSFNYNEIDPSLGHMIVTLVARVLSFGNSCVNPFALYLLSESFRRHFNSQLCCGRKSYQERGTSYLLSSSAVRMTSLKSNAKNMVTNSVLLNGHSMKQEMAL

For assay [2], the target named is T1, Bombesin BB1. The following applies: historical value, cited from earlier work.

Like-named read-outs stand apart in the source and are kept apart here.

Usually IC50 stands for the midpoint of a concentration-inhibition curve. As a reminder, the Ki is the dissociation constant of the complex between target and ligand, obtained from inhibition or displacement.

As for Neuromedin B, the IC50 at Bombesin BB1 [1] was 0.0206 nM; at Bombesin BB1 [2] (read-out: Historical IC50 (reference compound)), 0.017 nM. The Ki on Bombesin BB1 [2] (read-out: Historical Ki (reference compound)) is 0.0081 nM.
